From publication PMC12102759 (Protein Science : A Publication of the Protein Society, 2025) come the findings set out here.

Experiment [1] deals with YES SH3. It counts as binding, human.
Experiment [2] relates to AP2M1 MU. Format: binding, human.

In the case of “TSSIQSRPLPSPPKFT F15A (TSSIQSRPLPSPPKAT)”, in experiment [1], the “PSSM value of the single amino acid variant (DMS by phage display)” value was determined as 0.01991. Take “TSSIQSRPLPSPPKFT F15D (TSSIQSRPLPSPPKDT)”: the “PSSM value of the single amino acid variant (DMS by phage display)” value in experiment [1] is reported as 0. Same read-out and setting: with “TSSIQSRPLPSPPKFT F15E (TSSIQSRPLPSPPKET)” the figure was 0.04763. As to TSSIQSRPLPSPPKFT F15F, the “PSSM value of the single amino acid variant (DMS by phage display)” value in experiment [1] is given as 0.04241. On to “TSSIQSRPLPSPPKFT F15G (TSSIQSRPLPSPPKGT)”, for which the “PSSM value of the single amino acid variant (DMS by phage display)” value in experiment [1] is reported as 0.03508. Turning to “TSSIQSRPLPSPPKFT F15H (TSSIQSRPLPSPPKHT)”, the “PSSM value of the single amino acid variant (DMS by phage display)” value in experiment [1] is recorded as 0.01814. Take “TSSIQSRPLPSPPKFT F15I (TSSIQSRPLPSPPKIT)”: the “PSSM value of the single amino acid variant (DMS by phage display)” value in experiment [1] is given as 0.06266. With “TSSIQSRPLPSPPKFT F15K (TSSIQSRPLPSPPKKT)”, the “PSSM value of the single amino acid variant (DMS by phage display)” value in experiment [1] is listed as 0.005907. Still for that read-out and setting: in the case of “TSSIQSRPLPSPPKFT F15L (TSSIQSRPLPSPPKLT)” it was 0.02724; in that of “TSSIQSRPLPSPPKFT F15M (TSSIQSRPLPSPPKMT)”, 0.4794.

Consider “TSSIQSRPLPSPPKFT F15N (TSSIQSRPLPSPPKNT)”, for which the “PSSM value of the single amino acid variant (DMS by phage display)” value in experiment [1] is on record as 0.01201. For the sequence “TSSIQSRPLPSPPKFT F15P (TSSIQSRPLPSPPKPT)”, in experiment [1], the “PSSM value of the single amino acid variant (DMS by phage display)” value is listed as 0.1419. On to “TSSIQSRPLPSPPKFT F15Q (TSSIQSRPLPSPPKQT)”, for which the “PSSM value of the single amino acid variant (DMS by phage display)” value in experiment [1] stood at 0.009042. On to “TSSIQSRPLPSPPKFT F15R (TSSIQSRPLPSPPKRT)”, for which the “PSSM value of the single amino acid variant (DMS by phage display)” value in experiment [1] was determined as 0.01536.

Turning to “TSSIQSRPLPSPPKFT F15S (TSSIQSRPLPSPPKST)”, the “PSSM value of the single amino acid variant (DMS by phage display)” value in experiment [1] turned out to be 0. As for “TSSIQSRPLPSPPKFT F15T (TSSIQSRPLPSPPKTT)”, the “PSSM value of the single amino acid variant (DMS by phage display)” value in experiment [1] is listed as 0.001679.

Regarding “TSSIQSRPLPSPPKFT F15V (TSSIQSRPLPSPPKVT)”, the “PSSM value of the single amino acid variant (DMS by phage display)” value in experiment [1] was found to be 0.0361. The same measure, in the same setting: with “TSSIQSRPLPSPPKFT F15W (TSSIQSRPLPSPPKWT)” the figure was 0.03019; with “TSSIQSRPLPSPPKFT F15Y (TSSIQSRPLPSPPKYT)”, 0.01537. Same read-out and setting: in the case of TSSIQSRPLPSPPKFT I4A (TSSAQSRPLPSPPKFT) it was 0.05992. As for “VSDIDYVPLKSATAIT T13P (VSDIDYVPLKSAPAIT)”, the “PSSM value of the substitution (DMS by phage display)” value (“PSSM value of the substitution” below) in experiment [2] was 0.02594. As to “VSDIDYVPLKSATAIT T13Q (VSDIDYVPLKSAQAIT)”, in experiment [2], the “PSSM value of the substitution” value was determined as 0.5233. Turning to “VSDIDYVPLKSATAIT T13R (VSDIDYVPLKSARAIT)”, the “PSSM value of the substitution” value in experiment [2] was found to be 0.005583.

Consider “VSDIDYVPLKSATAIT T13S (VSDIDYVPLKSASAIT)”, for which the “PSSM value of the substitution” value in experiment [2] was found to be 0.021. For VSDIDYVPLKSATAIT T13T, the “PSSM value of the substitution” value in experiment [2] came out at 0.003813.

For the sequence “VSDIDYVPLKSATAIT T13V (VSDIDYVPLKSAVAIT)”, the “PSSM value of the substitution” value in experiment [2] came to 0.03153. In the case of “VSDIDYVPLKSATAIT T13W (VSDIDYVPLKSAWAIT)”, the “PSSM value of the substitution” value in experiment [2] came out at 0. For “VSDIDYVPLKSATAIT T13Y (VSDIDYVPLKSAYAIT)”, the “PSSM value of the substitution” value in experiment [2] worked out at 0.006401. Take VSDIDYVPLKSATAIT V1A (ASDIDYVPLKSATAIT): the “PSSM value of the substitution” value in experiment [2] turned out to be 0.

For the sequence VSDIDYVPLKSATAIT V1D (DSDIDYVPLKSATAIT), the “PSSM value of the substitution” value in experiment [2] was 8.606e-5. With VSDIDYVPLKSATAIT V1E (ESDIDYVPLKSATAIT), the “PSSM value of the substitution” value in experiment [2] is reported as 0.01239.

With VSDIDYVPLKSATAIT V1F (FSDIDYVPLKSATAIT), the “PSSM value of the substitution” value in experiment [2] is given as 9.11e-5.

Turning to VSDIDYVPLKSATAIT V1G (GSDIDYVPLKSATAIT), in experiment [2], the “PSSM value of the substitution” value is 0.0001046. Regarding VSDIDYVPLKSATAIT V1H (HSDIDYVPLKSATAIT), the “PSSM value of the substitution” value in experiment [2] was determined as 0.002131. Same read-out and setting: with VSDIDYVPLKSATAIT V1I (ISDIDYVPLKSATAIT) the figure was 0.

VSDIDYVPLKSATAIT V1K (KSDIDYVPLKSATAIT): in experiment [2], the “PSSM value of the substitution” value is recorded as 0.0003311. With VSDIDYVPLKSATAIT V1L (LSDIDYVPLKSATAIT), the “PSSM value of the substitution” value in experiment [2] is on record as 0.0001768. In the case of VSDIDYVPLKSATAIT V1M (MSDIDYVPLKSATAIT), the “PSSM value of the substitution” value in experiment [2] is reported as 0.0003154.

As for VSDIDYVPLKSATAIT V1N (NSDIDYVPLKSATAIT), the “PSSM value of the substitution” value in experiment [2] stood at 0.

With VSDIDYVPLKSATAIT V1P (PSDIDYVPLKSATAIT), in experiment [2], the “PSSM value of the substitution” value worked out at 0.003868. Take VSDIDYVPLKSATAIT V1Q (QSDIDYVPLKSATAIT): the “PSSM value of the substitution” value in experiment [2] was 0. Consider VSDIDYVPLKSATAIT V1R (RSDIDYVPLKSATAIT), for which the “PSSM value of the substitution” value in experiment [2] is on record as 0.8177. The same measure, in the same setting: with VSDIDYVPLKSATAIT V1S (SSDIDYVPLKSATAIT) the figure was 0.005325; with VSDIDYVPLKSATAIT V1T (TSDIDYVPLKSATAIT), 0.009093. In the case of VSDIDYVPLKSATAIT V1V, the “PSSM value of the substitution” value in experiment [2] is reported as 0.0001148. Same read-out and setting: with VSDIDYVPLKSATAIT V1W (WSDIDYVPLKSATAIT) the figure was 0.1483; with VSDIDYVPLKSATAIT V1Y (YSDIDYVPLKSATAIT), 0. On to VSDIDYVPLKSATAIT V7A (VSDIDYAPLKSATAIT), for which, in experiment [2], the “PSSM value of the substitution” value is recorded as 0. As to VSDIDYVPLKSATAIT V7D (VSDIDYDPLKSATAIT), the “PSSM value of the substitution” value in experiment [2] was 0. For the sequence VSDIDYVPLKSATAIT V7E (VSDIDYEPLKSATAIT), the “PSSM value of the substitution” value in experiment [2] was 0.002945. Same read-out and setting: in the case of VSDIDYVPLKSATAIT V7F (VSDIDYFPLKSATAIT) it was 0.7071; in that of VSDIDYVPLKSATAIT V7G (VSDIDYGPLKSATAIT), 0; in that of VSDIDYVPLKSATAIT V7H (VSDIDYHPLKSATAIT), 0.001087. Turning to VSDIDYVPLKSATAIT V7I (VSDIDYIPLKSATAIT), in experiment [2], the “PSSM value of the substitution” value is reported as 0. As to VSDIDYVPLKSATAIT V7K (VSDIDYKPLKSATAIT), the “PSSM value of the substitution” value in experiment [2] is 0.02629. For the sequence VSDIDYVPLKSATAIT V7L (VSDIDYLPLKSATAIT), the “PSSM value of the substitution” value in experiment [2] was found to be 0.2591. In the case of VSDIDYVPLKSATAIT V7M (VSDIDYMPLKSATAIT), the “PSSM value of the substitution” value in experiment [2] amounted to 0.001261. In the case of VSDIDYVPLKSATAIT V7N (VSDIDYNPLKSATAIT), in experiment [2], the “PSSM value of the substitution” value worked out at 0.

Regarding VSDIDYVPLKSATAIT V7P (VSDIDYPPLKSATAIT), in experiment [2], the “PSSM value of the substitution” value amounted to 0. Consider VSDIDYVPLKSATAIT V7Q (VSDIDYQPLKSATAIT), for which the “PSSM value of the substitution” value in experiment [2] came to 0.0002611.

As for VSDIDYVPLKSATAIT V7R (VSDIDYRPLKSATAIT), in experiment [2], the “PSSM value of the substitution” value was found to be 0. Regarding VSDIDYVPLKSATAIT V7S (VSDIDYSPLKSATAIT), the “PSSM value of the substitution” value in experiment [2] worked out at 0. In the case of VSDIDYVPLKSATAIT V7T (VSDIDYTPLKSATAIT), the “PSSM value of the substitution” value in experiment [2] is reported as 0.

In the case of VSDIDYVPLKSATAIT V7V, the “PSSM value of the substitution” value in experiment [2] turned out to be 0.001069. In the case of VSDIDYVPLKSATAIT V7W (VSDIDYWPLKSATAIT), in experiment [2], the “PSSM value of the substitution” value was 0.0003888. Same read-out and setting: with VSDIDYVPLKSATAIT V7Y (VSDIDYYPLKSATAIT) the figure was 0.0004595; with VSDIDYVPLKSATAIT Y6A (VSDIDAVPLKSATAIT), 0; with VSDIDYVPLKSATAIT Y6D (VSDIDDVPLKSATAIT), 0. Regarding VSDIDYVPLKSATAIT Y6E (VSDIDEVPLKSATAIT), in experiment [2], the “PSSM value of the substitution” value stood at 0.

On to VSDIDYVPLKSATAIT Y6F (VSDIDFVPLKSATAIT), for which the “PSSM value of the substitution” value in experiment [2] is recorded as 0.

Regarding VSDIDYVPLKSATAIT Y6G (VSDIDGVPLKSATAIT), the “PSSM value of the substitution” value in experiment [2] is reported as 0.

Turning to VSDIDYVPLKSATAIT Y6H (VSDIDHVPLKSATAIT), the “PSSM value of the substitution” value in experiment [2] worked out at 0.

In the case of VSDIDYVPLKSATAIT Y6I (VSDIDIVPLKSATAIT), the “PSSM value of the substitution” value in experiment [2] is listed as 0. For the sequence VSDIDYVPLKSATAIT Y6K (VSDIDKVPLKSATAIT), the “PSSM value of the substitution” value in experiment [2] worked out at 0. Regarding VSDIDYVPLKSATAIT Y6L (VSDIDLVPLKSATAIT), the “PSSM value of the substitution” value in experiment [2] turned out to be 0. Consider VSDIDYVPLKSATAIT Y6M (VSDIDMVPLKSATAIT), for which, in experiment [2], the “PSSM value of the substitution” value was determined as 0.

As to VSDIDYVPLKSATAIT Y6N (VSDIDNVPLKSATAIT), the “PSSM value of the substitution” value in experiment [2] stood at 0.

As to VSDIDYVPLKSATAIT Y6P (VSDIDPVPLKSATAIT), the “PSSM value of the substitution” value in experiment [2] was 0. As for VSDIDYVPLKSATAIT Y6Q (VSDIDQVPLKSATAIT), in experiment [2], the “PSSM value of the substitution” value stood at 0. Turning to VSDIDYVPLKSATAIT Y6R (VSDIDRVPLKSATAIT), the “PSSM value of the substitution” value in experiment [2] is 0. On the same count and under the same terms, with VSDIDYVPLKSATAIT Y6S (VSDIDSVPLKSATAIT) the figure was 0; with VSDIDYVPLKSATAIT Y6T (VSDIDTVPLKSATAIT), 0. On to VSDIDYVPLKSATAIT Y6V (VSDIDVVPLKSATAIT), for which the “PSSM value of the substitution” value in experiment [2] stood at 0. Still for that read-out and setting: with VSDIDYVPLKSATAIT Y6W (VSDIDWVPLKSATAIT) the figure was 0. VSDIDYVPLKSATAIT Y6Y: the “PSSM value of the substitution” value in experiment [2] came out at 1.
